One assay addresses human CD22 (Homo sapiens, UniProt P20273). The experiment in a line: ELISA inhibition assay: CD22-Fc chimera binding to immobilized NeuAc-LN. The method, then: (§1) FIG. 1A-B illustrate that sialosides with derivation at position 9 that includes a neutral core and a hydrophobic moiety are potent inhibitors for CD22. Similar inhibitors can be made by derivation at position 5. […] FIG. 1B graphically illustrates competitive inhibition of selected sialoside inhibitors. Inhibitors were added with soluble CD22-Fc chimeras to block the chimera binding to immobilized NeuAcα2-6Galβ1-4GlcNAc (NeuAc-LN, human CD22, hCD22) or NeuGcα2,6Galβ1-4GlcNAc (NeuGc-LN, mouse CD22, mCD22). Data are the average +/−S.D. of triplicate determinations and are representative of two individual assays.
(§2) ELISA inhibition assays: For inhibition assays, high binding 96 well microtiter plates (Corning Costar) were coated with neutravidin by incubation with 50 ul of 1 mg/ml Neutravidin (Pierce Biotechnology) in 50 mM Na bicarbonate pH 9.5 overnight at 4° C. The wells were then washed with PBS and blocked with PBS containing 5 mg/ml BSA for 1 hr at 37° C. Fifty microliters of a selected biotinylated sialoside (0.33 uM) was added to each well, and allowed to bind for 1 hr at room temperature. […]
(§3) The CD22-Fc chimera employed was produced as described in Blixt et al. (J. Biol. Chem. 278: 31007-19 (2003)) and diluted to 0.1 mg/ml into HBSS (with 5 mg/ml BSA and 1 mM EDTA). […] The reaction was stopped with 50 ul of 2.5 M H2SO4 and the optical density at 450 nm (OD450) was measured.
(ELISA stands for enzyme-linked immunosorbent assay.)

By UniProt entry, the sequences of proteins in these tests, tags left out. Chains listed by the source or under a name are the forms on record and can include a tag or linker. Residues count along the entry.
UniProt P20273, 20-330 with tags or gaps limits assumed: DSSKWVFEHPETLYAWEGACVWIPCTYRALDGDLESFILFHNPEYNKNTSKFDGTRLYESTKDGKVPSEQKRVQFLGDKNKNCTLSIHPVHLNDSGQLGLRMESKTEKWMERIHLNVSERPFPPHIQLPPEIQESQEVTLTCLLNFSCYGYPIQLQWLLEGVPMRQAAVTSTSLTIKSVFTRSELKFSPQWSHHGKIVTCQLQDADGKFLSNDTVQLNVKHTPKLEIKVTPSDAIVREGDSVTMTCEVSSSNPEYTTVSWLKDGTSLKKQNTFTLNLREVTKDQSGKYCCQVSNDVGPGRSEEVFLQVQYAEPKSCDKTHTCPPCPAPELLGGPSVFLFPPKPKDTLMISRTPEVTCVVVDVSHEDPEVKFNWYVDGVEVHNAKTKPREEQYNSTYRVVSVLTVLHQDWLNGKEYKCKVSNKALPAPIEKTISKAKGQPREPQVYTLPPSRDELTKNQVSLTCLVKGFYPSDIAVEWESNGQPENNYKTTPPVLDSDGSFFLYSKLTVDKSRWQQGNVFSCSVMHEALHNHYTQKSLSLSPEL
UniProt P35329, 22-351 with tags or gaps limits assumed: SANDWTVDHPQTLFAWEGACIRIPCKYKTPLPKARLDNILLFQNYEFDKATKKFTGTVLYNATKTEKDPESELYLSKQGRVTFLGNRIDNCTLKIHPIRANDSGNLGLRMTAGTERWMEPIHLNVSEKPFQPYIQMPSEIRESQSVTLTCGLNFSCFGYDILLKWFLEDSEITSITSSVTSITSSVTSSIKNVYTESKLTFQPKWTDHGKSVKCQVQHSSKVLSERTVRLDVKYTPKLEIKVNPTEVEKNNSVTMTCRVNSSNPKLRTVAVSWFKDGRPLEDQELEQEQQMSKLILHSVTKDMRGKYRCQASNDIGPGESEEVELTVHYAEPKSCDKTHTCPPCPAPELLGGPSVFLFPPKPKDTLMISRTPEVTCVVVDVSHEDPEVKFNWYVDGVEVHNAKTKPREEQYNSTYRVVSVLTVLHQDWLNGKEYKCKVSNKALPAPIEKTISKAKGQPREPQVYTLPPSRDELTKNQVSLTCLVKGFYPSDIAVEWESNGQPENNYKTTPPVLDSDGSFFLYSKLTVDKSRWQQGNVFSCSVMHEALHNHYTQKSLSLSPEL

Another assay has as its target mouse CD22 (Mus musculus, UniProt P35329). The experiment in a line: ELISA inhibition assay: CD22-Fc chimera binding to immobilized NeuGc-LN. The method, then: as §1, §2, §3

For `COC1(C(=O)O)CC(O)C(NC(C)=O)C(C(O)C(O)CNC(=O)Cc2ccc(-c3ccccc3)cc2)O1` (stereo not shown), the IC50 on human CD22 (read-out: IC 50 value hCd22, inhibition of CD22-Fc binding to immobilized NeuAcα2,6LacNAc) came to 50 µM; at mouse CD22 (read-out: IC 50 value mCd22, inhibition of CD22-Fc binding to immobilized NeuGcα2,6LacNAc), 220 µM. The “rIP hCd22 (relative inhibitory potency)” value at human CD22 (relative to NeuAc-LN = 1) is recorded as 4.4. Also, on mouse CD22 (relative to NeuGc-LN = 1), the “rIP mCd22 (relative inhibitory potency)” value is 1.

For the origin of these results see patent US8357671B2, “High affinity Siglec ligands” (priority 2005, dated 2013).
